Laboratory results taken from paper PMC3288656 (Biochemical pharmacology, 2012).
Several values for one entry are separate records, joined by “and”; a condition that tells them apart may be missing. Equal values may be shown once. Marks after values point to notes of the source that are not given here.

Protein sequences, listed by entry. Tags and fused reporters are not part of them.
UniProt P47746, whole entry: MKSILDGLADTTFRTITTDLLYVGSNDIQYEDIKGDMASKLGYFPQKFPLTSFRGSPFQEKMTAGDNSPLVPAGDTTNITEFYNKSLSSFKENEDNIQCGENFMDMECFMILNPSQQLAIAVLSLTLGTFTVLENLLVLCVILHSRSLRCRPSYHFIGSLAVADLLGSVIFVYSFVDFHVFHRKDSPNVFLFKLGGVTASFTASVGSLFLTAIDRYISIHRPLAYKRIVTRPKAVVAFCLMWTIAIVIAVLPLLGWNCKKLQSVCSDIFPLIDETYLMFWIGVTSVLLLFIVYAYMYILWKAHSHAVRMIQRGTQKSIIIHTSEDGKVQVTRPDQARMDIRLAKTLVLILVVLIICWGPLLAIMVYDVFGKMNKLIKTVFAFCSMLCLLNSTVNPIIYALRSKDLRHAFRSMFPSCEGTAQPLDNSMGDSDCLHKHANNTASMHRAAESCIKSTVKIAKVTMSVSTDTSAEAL

Biological target: CB1Rs (Mus musculus, UniProt P47746)
Experiment: [35S]GTPγS binding assay
Type: biochemical

## CCCCCc1cc(O)c2c(c1)OC(C)(C)[C@@H]1CCC(C)=C[C@@H]21 [Δ^9-THC, Δ^9-tetrahydrocannabinol, reference compound]
concentration-effect curves, mouse brain homogenates, n=3–4
  [35S]GTPγS Binding Emax: 0.08 ± 0.01 ^c pmole/mg
Drug 1 μM
  [35S]GTPγS Binding: 0.17 ± 0.01 pmol/mg
Drug 1 μM co-incubated with CB1R antagonist O-2050 1 μM
  [35S]GTPγS Binding + O-2050 (1 μM): 0.06 ± 0.01 pmol/mg
Drug 10 μM (receptor-saturating)
  [35S]GTPγS Binding: 0.08 ± 0.00 pmole/mg and 0.08 ±0.00 ^a, ^b pmole/mg
